From PubChem BioAssay AID2676 (National Center for Advancing Translational Sciences (NCATS), 2010)
Only a part is listed here, and it is no random draw. Activity calls are given as the source filed them. The call rests on the fitted dose curve; in most records, active means well fitted activation curve with a large enough effect; inconclusive means small, poorly fitted or top-dose-only effect; inactive means flat fitted curve, though single readings scatter.

Sequences of proteins named here, by UniProt entry; tags and fusion partners are left off.
UniProt Q9HBX9, whole entry: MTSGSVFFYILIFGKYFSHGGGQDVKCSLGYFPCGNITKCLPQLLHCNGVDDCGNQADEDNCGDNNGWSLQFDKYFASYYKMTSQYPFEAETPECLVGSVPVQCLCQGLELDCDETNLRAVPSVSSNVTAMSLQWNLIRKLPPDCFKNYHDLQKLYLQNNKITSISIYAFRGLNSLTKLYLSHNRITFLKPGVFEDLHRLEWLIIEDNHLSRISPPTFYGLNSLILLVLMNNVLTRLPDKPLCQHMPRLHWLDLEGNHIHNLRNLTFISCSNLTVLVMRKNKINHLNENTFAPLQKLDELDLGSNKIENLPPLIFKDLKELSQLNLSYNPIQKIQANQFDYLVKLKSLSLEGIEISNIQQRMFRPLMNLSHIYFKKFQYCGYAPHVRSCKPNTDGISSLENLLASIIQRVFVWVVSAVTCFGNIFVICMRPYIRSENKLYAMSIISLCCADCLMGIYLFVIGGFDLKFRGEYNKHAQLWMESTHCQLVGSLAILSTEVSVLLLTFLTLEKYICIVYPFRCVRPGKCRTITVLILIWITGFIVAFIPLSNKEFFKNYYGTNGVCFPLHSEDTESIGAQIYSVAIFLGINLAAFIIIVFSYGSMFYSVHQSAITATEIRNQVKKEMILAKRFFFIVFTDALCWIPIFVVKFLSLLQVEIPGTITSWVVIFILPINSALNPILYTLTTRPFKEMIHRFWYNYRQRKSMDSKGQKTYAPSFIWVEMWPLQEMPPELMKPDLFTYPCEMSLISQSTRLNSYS

These molecules were tested against Relaxin receptor 1 (Homo sapiens) (UniProt Q9HBX9) (assay: qHTS Assay for Agonists of the Relaxin Receptor RXFP1). Details: HEK293T-RXFP1 cAMP TR-FRET, 30 min, percent of porcine relaxin response, buffer zero; at 57.5 µM (top of the series).
Source text: NIH Chemical Genomics Center [NCGC] NIH Molecular Libraries Probe Production Centers Network [MLPCN] MLPCN Grant: R03 MH085705-01A1 Assay Submitter (PI): Alexander Agoulnik NCGC Assay Overview: The relaxin hormone is involved in the variety of biological functions in normal tissues and diseases. The role of relaxin is well-established in female reproduction and parturition, mammary gland and endometrial development, maintenance of myometrial quiescence during pregnancy. Relaxin signaling through its G protein-coupled receptor (GPCR) RXFP1 results in ECM remodeling through regulation of collagen deposition, cell invasiveness, proliferation and overall tissue homeostasis. […] Recombinant human relaxin (rhRlx) is currently being tested in clinical trials as a protective agent in congestive heart failure, in treating severe preeclampsia, and as an anti-fibrotic agent in systemic sclerosis. Upon relaxin binding RXFP1 activation leads to the activation of adenylate cyclase (AC) via Gs. cAMP will activate PKA, which phosphorylates many signaling proteins. Thus, detection of cAMP increase is an easy and reliable indication of relaxin receptor activation. To screen for agonists of the relaxin receptor, a HEK293T cell line stably transfected with RXFP1 was used. RXFP1 activation was assayed by changes in cAMP levels as detected with a time-resolved fluorescence energy transfer (TR-FRET) cAMP detection kit.
NCGC Assay Protocol Summary: This is a cell-based assay for cAMP second messenger response to screen for agonists of the RXFP1 receptor. The assay was conducted in the presence of a PDE4 inhibitor (Ro 20174). The cells were lysed and the cAMP levels were measured with a TR-FRET cAMP kit. Presence of cAMP in the cell lysate disrupts binding between the cryptate-labeled anti-cAMP and d2-labeled cAMP pair, leading to a decrease in the TR-FRET signal. Data were normalized to the controls for basal activity (buffer only) and 100% activity (29 nM porcine relaxin). The EC50 values were determined from concentration-response data modeled with the standard Hill equation 1536-well assay protocol for the HEK293 RXFP1 cAMP assay: (1) Add 3 ul HEK293 RXFP1 cell culture. 2000 cells/well in DMEM/F12, 10% FBS, 1x Pen/Strep (dispensed offline with MultiDrop Combi). (2) Incubate 16-24 hr at 37C, 5% CO2. (3) Add 1 ul 400uM Ro20174 in DPBS, 0.05% BSA, 0.005% Tween 20. (3) Add 23 nl compounds in DMSO solution. Final concentration was 0.5 - 58 uM. (4) Incubate 30 min at 37C, 5% CO2. (5) Add 1 ul cAMP-d2 in lysis buffer (HTRF cAMP HiRange kit, CisBio). (6) Add 1 ul anti-cAMP antibody-cryptate in lysis buffer (HTRF cAMP HiRange kit, CisBio). (7) Incubate 30 min at room temperature. (6) Detect the assay plate in a ViewLux plate reader (PerkinElmer) with Ex=320 nm, Em1=615 nm and Em2=665 nm. Keywords: relaxin, RXFP1, RXFP2, G-protein coupled receptor, cAMP, agonist, high throughput screening, MLSMR, MLSCN, NIH Roadmap, qHTS and NCGC
Further: nearly all actives have a fitted effect of over 60% in size.
On the % scale 0 is the no-effect control and ±100 the full control effect.

SMILES	activation
CCc1ccc(OP(C)(=O)O)cc1	inactive: 3.55%
CP(=O)(Nc1ccccn1)Oc1ccccc1 (stereo unspecified)	inactive: -0.512%
COc1ccccc1OP(C)(=O)Nc1ccc(C)cc1C (stereo unspecified)	inactive: 0.732%
O=[N+]([O-])c1cc([N+](=O)[O-])c(Nc2ccccn2)c([N+](=O)[O-])c1	inactive: 5.22%
Cc1c(NP(C)(=O)Oc2ccc(C(C)C)cc2)c(=O)n(-c2ccccc2)n1C (stereo unspecified)	inactive: 0.477%
CN(C)CCOC(=O)C(O)(c1ccccc1)C1CCCC1 (stereo unspecified)	inactive: -1.04%
COc1ccc(OP(C)(=O)Nc2ccccn2)cc1 (stereo unspecified)	inactive: 1.96%
COc1ccccc1OP(C)(=O)Nc1ccc(Br)cc1 (stereo unspecified)	inactive: 0%
CP(=O)(OCCOc1ccccc1)OCCOc1ccccc1	inactive: -2.14%
CP(=O)(Nc1ccc(Cl)cc1Cl)Oc1ccccc1 (stereo unspecified)	inactive: 2.85%
Cc1nc2ccc3ccccc3c2o1.O=[N+]([O-])c1cc([N+](=O)[O-])c(O)c([N+](=O)[O-])c1	inactive: 0.15%
COc1ccc(OP(C)(=O)Nc2ccccc2Br)cc1 (stereo unspecified)	inactive: 3.39%
COc1ccccc1OP(C)(=O)Nc1ccc(C)c(C)c1 (stereo unspecified)	inactive: -0.464%
Cc1cc(C)cc(OP(C)(=O)Nc2cccc(C(F)(F)F)c2)c1 (stereo unspecified)	inactive: -0.688%
CP(=O)(OC12CC3CC(CC(C3)C1)C2)OC12CC3CC(CC(C3)C1)C2	inactive: -0.582%
CCOC(=O)c1ccc(NP(C)(=O)Oc2ccc(Cl)cc2)cc1 (stereo unspecified)	inactive: -0.181%
CN(C)C(=O)c1c([N+](=O)[O-])cc([N+](=O)[O-])cc1[N+](=O)[O-]	inactive: -0.773%
CP(=O)(Nc1ccc(Cl)cc1)Oc1ccc(F)cc1 (stereo unspecified)	inactive: 0.678%
CC(C)(C)c1ccc(OP(C)(=O)O)cc1	inactive: -0.918%
COc1ccccc1OP(C)(=O)Nc1ccccc1Br (stereo unspecified)	inactive: 4%
CP(=O)(Oc1ccccc1)N1CCOC1=O (stereo unspecified)	inactive: 2.63%

SMILES	activation
CCc1ccc(OP(C)(=O)Nc2cccnc2)cc1 (stereo unspecified)	inactive: -0.569%
COc1ccccc1OP(C)(=O)Nc1c(C)n(C)n(-c2ccccc2)c1=O (stereo unspecified)	inactive: 1.18%
O=C(OCCCN1CCCC1)C(O)(c1ccccc1)C1CCCCC1 (stereo unspecified)	inactive: -3.39%
CCN(CC)CC(O)COC(=O)C(O)(c1ccccc1)C1CCCCC1 (stereo unspecified)	inactive: -0.325%
COc1ccc(OP(C)(=O)Nc2ccc(Br)cc2)cc1 (stereo unspecified)	inactive: 4.27%
Cc1ccccc1NP(C)(=O)Nc1ccccc1C	inactive: 2.23%
CP(=O)(Nc1ccc2c(c1)OCCO2)Oc1ccccc1 (stereo unspecified)	inactive: -1.8%
CCOP(C)(=S)SCC(=O)NC(C)(CC)C(=O)O (stereo unspecified)	inactive: 0.353%
CP(=O)(Nc1ccc(SC(F)(F)F)cc1)Oc1ccc(F)cc1 (stereo unspecified)	inactive: 0.607%
Cc1cc(-c2cccc3ccccc23)c(C)cn1.O=[N+]([O-])c1cc([N+](=O)[O-])c(O)c([N+](=O)[O-])c1	inactive: -2.2%
O=[N+]([O-])c1ccc(OP2(=O)COCCO2)cc1 (stereo unspecified)	inactive: -0.84%
COc1ccc(NP(C)(=O)Oc2ccccc2OC)cc1 (stereo unspecified)	inactive: 0.217%
CN(C)CCOC(=O)C(O)(c1ccccc1)C1CCCCC1 (stereo unspecified)	inactive: -0.237%
COc1ccc(OP(C)(=O)Nc2cccc(Br)c2)cc1 (stereo unspecified)	inactive: -0.155%
CCCCCOc1ccc(NP(C)(=O)Oc2ccc(Cl)cc2Cl)cc1 (stereo unspecified)	inactive: -8.1%
CP(=O)(Nc1ccccc1)Oc1ccc(F)cc1 (stereo unspecified)	inactive: 2.15%
CCN(CC)CCCOC(=O)C(O)(c1ccccc1)C1CCCCC1 (stereo unspecified)	inactive: 0.049%
COc1ccc(OP(C)(=O)Nc2ccc(SC(F)(F)F)cc2)cc1 (stereo unspecified)	inactive: -1.16%
CCOC(=O)c1ccc(NP(C)(=O)Oc2ccc(F)cc2)cc1 (stereo unspecified)	inactive: -0.0452%
O=C(OCCN1CCN(CCOCc2ccccc2)CC1)C(O)(c1ccccc1)c1ccccc1	inactive: 2.53%
CC(C)c1ccc(OP(C)(=O)Nc2ccc(SC(F)(F)F)cc2)cc1 (stereo unspecified)	inactive: -0.345%

SMILES	activation
CP(=O)(Nc1ccccc1F)Oc1ccccc1 (stereo unspecified)	inactive: 1.24%
CP(=O)(Nc1cccc(Br)c1)Oc1ccccc1 (stereo unspecified)	inactive: -0.0777%
Cc1cc(C)cc(OP(C)(=O)Nc2ccccn2)c1 (stereo unspecified)	inactive: 0.383%
Cc1ccc(C)c(NP(C)(=O)Oc2ccccc2)c1 (stereo unspecified)	inactive: 2.96%
Cc1cc(C)cc(OP(C)(=O)Nc2ccc(C)cc2C)c1 (stereo unspecified)	inactive: 1.39%
CCOC(=O)c1ccc(NP(C)(=O)Oc2cc(C)cc(C)c2)cc1 (stereo unspecified)	inactive: -0.35%
COc1ccccc1OP(C)(=O)Nc1cccc(Br)c1 (stereo unspecified)	inactive: 1.05%
CC1=NCCc2c1[nH]c1ccccc21.O=[N+]([O-])c1cc([N+](=O)[O-])c(O)c([N+](=O)[O-])c1	inactive: 2.46%
CP(=O)(Nc1ccc(SC(F)(F)F)cc1)Oc1ccccc1 (stereo unspecified)	inactive: -1.24%
CCCOc1ccc(NP(C)(=O)Oc2ccc(Cl)cc2)cc1 (stereo unspecified)	inactive: 0.971%
CN1CCCCC1COC(=O)C1(O)c2ccccc2CCc2ccccc21 (stereo unspecified)	inactive: 0.778%
COc1ccccc1OP(C)(=O)Nc1c(C)cccc1C (stereo unspecified)	inactive: -0.0316%
O=[N+]([O-])c1cc([N+](=O)[O-])c(Nc2nnnn2CCO)c([N+](=O)[O-])c1	inactive: 0.309%
CC1=C2N=C(C=C3N=C(C(C)=C4[N-][C@@](C)([C@@H]5N=C1[C@](C)(CCC(=O)NC[C@@H](C)OP(=O)([O-])O[C@H]1[C@@H](O)[C@@H](n6cnc7cc(C)c(C)cc76)O[C@@H]1CO)[C@H]5CC(N)=O)[C@@](C)(CC(N)=O)[C@@H]4CCC(N)=O)[C@@](C)(CC(N)=O)[C@@H]3CCC(N)=O)C(C)(C)[C@@H]2CCC(N)=O.[C-]#N.[Co+3]	inactive: -0.51%
Cc1nc2ccc3ccccc3c2s1.O=[N+]([O-])c1cc([N+](=O)[O-])c(O)c([N+](=O)[O-])c1	inactive: -0.642%
O=[N+]([O-])c1cc([N+](=O)[O-])c(-n2nnc3ccccc32)c([N+](=O)[O-])c1	inactive: 4.61%
CP(=O)(Nc1ccccn1)Oc1ccc(Cl)cc1 (stereo unspecified)	inactive: 0.426%
CCOP(C)(=S)SCC(=O)NC(C)C(=O)O (stereo unspecified)	inactive: 0.332%
CCOC(=O)c1ccc(NP(C)(=O)Oc2ccc(OC)cc2)cc1 (stereo unspecified)	inactive: 2.34%
CCc1ccc(OP(C)(=O)N2CCN(c3ccc([N+](=O)[O-])cc3)CC2)cc1 (stereo unspecified)	inactive: -1.95%
CP(=O)(NC(=O)Nc1ccccc1)Oc1ccccc1 (stereo unspecified)	inactive: 1.14%

SMILES	activation
Cc1cc(C)cc(OP(C)(=O)Nc2ccc(SC(F)(F)F)cc2)c1 (stereo unspecified)	inactive: 0.947%
CP(=O)(Nc1ccc(SC(F)(F)F)cc1)Oc1ccc(Cl)cc1 (stereo unspecified)	inactive: 2.22%
Cc1cccc(C)c1OP(C)(=O)Nc1ccc(SC(F)(F)F)cc1 (stereo unspecified)	inactive: 0.76%
CP(=O)(Oc1ccccc1)OC(c1ccccc1)C(F)(F)F (stereo unspecified)	inactive: 2.07%
COc1ccccc1OP(C)(=O)Nc1ccccc1 (stereo unspecified)	inactive: 0.341%
CP(=O)(Nc1ccccc1Br)Oc1ccccc1 (stereo unspecified)	inactive: 1.15%
CP(=S)(Nn1cnnc1)Oc1ccccc1 (stereo unspecified)	inactive: 1.32%
COc1ccccc1OP(C)(=O)Nc1cc(Cl)ccc1C (stereo unspecified)	inactive: 1.87%
COc1ccc(OP(C)(=O)Nc2cccc(F)c2)cc1 (stereo unspecified)	inactive: 0.131%
Cc1cc(C)cc(OP(C)(N)=O)c1 (stereo unspecified)	inactive: 1.29%
CCOC(=O)c1ccc(NP(C)(=O)Oc2ccccc2)cc1 (stereo unspecified)	inactive: -1.19%
COc1ccccc1OP(C)(=O)Nc1ccc(C)cc1 (stereo unspecified)	inactive: -0.517%
Cc1ccc(NP(C)(=O)Oc2ccccc2)c(C)c1 (stereo unspecified)	inactive: 2.99%
CC(C)(C)c1ccc(OP(C)(=O)Nc2ccc(SC(F)(F)F)cc2)cc1 (stereo unspecified)	inactive: -0.396%
Cc1cccc(C)c1OP(C)(N)=O (stereo unspecified)	inactive: 0.162%
O=[N+]([O-])c1ccc2c(c1)C=Nc1ccccc1O2	inactive: 1.11%
O=[N+]([O-])c1cc([N+](=O)[O-])c(Nc2cccnc2)c([N+](=O)[O-])c1	inactive: -2.32%
CCN(CC)CCCOC(=O)C(O)(c1ccccc1)c1ccccc1	inactive: 0.0932%
